The target of this assay is Histone acetyltransferase KAT2B (Homo sapiens) (UniProt Q92831). The note with it: Compound concentration 10.0 uM, Protein concentration 2.0 uM.

By UniProt entry, the sequences of proteins in these tests, tags left out.
UniProt Q92831, whole entry, looked up: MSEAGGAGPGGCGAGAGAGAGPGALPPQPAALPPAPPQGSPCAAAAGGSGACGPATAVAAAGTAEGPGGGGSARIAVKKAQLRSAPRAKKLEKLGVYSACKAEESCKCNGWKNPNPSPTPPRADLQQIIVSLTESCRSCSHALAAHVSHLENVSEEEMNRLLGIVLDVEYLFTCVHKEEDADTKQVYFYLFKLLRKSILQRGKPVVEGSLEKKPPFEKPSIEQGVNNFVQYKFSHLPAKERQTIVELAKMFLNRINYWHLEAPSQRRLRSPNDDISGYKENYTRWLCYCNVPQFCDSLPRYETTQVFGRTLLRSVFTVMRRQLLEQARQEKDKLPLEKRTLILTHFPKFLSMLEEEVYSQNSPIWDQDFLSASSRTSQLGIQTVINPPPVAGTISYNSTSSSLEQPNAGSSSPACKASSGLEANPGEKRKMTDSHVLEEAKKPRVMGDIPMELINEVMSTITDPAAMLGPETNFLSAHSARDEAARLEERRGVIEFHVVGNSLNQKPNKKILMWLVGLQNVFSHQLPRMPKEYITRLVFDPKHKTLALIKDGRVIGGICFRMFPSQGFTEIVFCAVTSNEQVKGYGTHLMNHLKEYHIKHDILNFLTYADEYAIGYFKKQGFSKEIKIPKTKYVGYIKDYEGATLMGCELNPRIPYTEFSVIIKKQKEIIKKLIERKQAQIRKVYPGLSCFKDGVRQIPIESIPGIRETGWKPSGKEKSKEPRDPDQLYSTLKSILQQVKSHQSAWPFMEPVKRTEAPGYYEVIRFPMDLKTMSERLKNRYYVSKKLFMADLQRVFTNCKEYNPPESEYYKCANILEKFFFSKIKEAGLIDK

On to `Cc1nnc2c3ccccc3c(N[C@@H](C)[C@H](c3ccccc3)N(C)C)nn12`, for which the ΔTm (in general, the change in melting temperature against a reference sample) worked out at 5.77 °C.

The record behind these values is ChEMBL document CHEMBL4649995, “Discovery of a PCAF Bromodomain Chemical Probe” (Angew Chem Int Ed Engl, 2017).
